Experimental data as given in patent US9314468B2, “Chemokine receptor modulators” (Altiris Therapeutics, Inc., priority 2008, dated 2016).
Blank lines part the entries; values can stand above or below the compound they belong to.

Amino acid sequences for entries named in this document (tags omitted).
UniProt P61073, whole entry: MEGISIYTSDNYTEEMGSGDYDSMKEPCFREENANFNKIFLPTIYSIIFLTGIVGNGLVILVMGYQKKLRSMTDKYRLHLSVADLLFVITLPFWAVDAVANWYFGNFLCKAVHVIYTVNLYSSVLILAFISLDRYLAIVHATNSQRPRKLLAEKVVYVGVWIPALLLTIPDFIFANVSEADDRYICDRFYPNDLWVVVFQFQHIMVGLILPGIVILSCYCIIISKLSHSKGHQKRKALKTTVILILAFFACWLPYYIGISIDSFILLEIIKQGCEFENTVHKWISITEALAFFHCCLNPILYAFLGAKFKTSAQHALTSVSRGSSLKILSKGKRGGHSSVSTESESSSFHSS

Experiments:
CXCR4 [1] = molecular target: T1, CXCR4 (Homo sapiens (Human), UniProt P61073); experiment: Functional calcium mobilization assay (SDF-1α induced); type: cell-based; details: read-out: Ca Flux IC50
Experimental: Functional modulation of CXCR4 was determined by calcium mobilization assay using leukemic lymphoid CEM cells, which naturally express high levels of CXCR4. Generally, the assay is carried out as follows: Cells are grown in vitro to confluency. On the day of the assay, cells are removed from the incubator, culture medium removed and replaced with a calcium sensitive dye (Calcium3 assay kit; Molecular Devices, Sunnyvale, Calif.). The cells are allowed to dye load for 45-60 min at 37° C. in the cell culture incubator and then allowed to equilibrate to room temperature for no more than 15 min before assay.
Compound plates were generated containing up to 3% dimethyl sulfoxide in media kept at room temperature. Test compounds were added to the cells at a 1:3 dilution, and calcium mobilization was measured using a Flex Station fluorescence imager (Molecular Devices). This first read was used to determine direct agonist activation of the CXCR4 receptor by the test compounds. […] Full dose response curves were generated daily for SDF-1a to calculate IC50 concentrations. The IC50 values are reported. In cases, where one was not determined, a percent inhibition at the 1 μM concentration was extrapolated.
Functional calcium mobilization assay was conducted as described in Example 27.

CXCR4 [2] = molecular target: T1, CXCR4; experiment: Cellular impedance change induced by SDF-1a (cellular dielectric spectroscopy); type: cell-based; details: read-out: Antagonist IC50
Experimental: This assay measures the change in impedance that occurs when cells are stimulated with SDF-1a. Changes in shape and cytoskeleton result in a change of impedance that is dependent on the activation of the CXCR4 receptor. This assay is contracted to MDS Pharma Services and performed as described in http://discovery.mdsps.com/Catalog/Services/Screening/CellKey/AssayDetails.aspx?id=7 (Assay 930070). Briefly, human HeLa cells expressing endogenous CXCR4 are grown in vitro and receptor activation in live cells is measured using cellular dielectric spectroscopy (CDS). EC50 is defined as a greater than 50% change in cellular impedance relative to the EC100 (10 nM SDF-1a) response. IC50 is defined as a greater than 50% inhibition of the cellular impedance change induced by an EC50 concentration of SDF-1a incubation at 30 minutes.

- IC50 (CXCR4 [1]; CEM cells, SDF-1α challenge at EC80-EC90): 56 nM
SMILES: OCCn1c2ccccc2c2ccnc(CN(CCCN3CCNCC3)[C@H]3CCCc4cccnc43)c21

SMILES: OCCn1c2ccccc2c2ccnc(CN(CCCN3CCNCC3)C3CCCc4cccnc43)c21 (stereo not drawn) [drawing 816]
- IC50 (CXCR4 [2]): 12 nM

SMILES: OCCn1c2ccccc2c2ccnc(CN(CCCN3CCNCC3)C3CCCc4cccnc43)c21 (stereo not drawn) [drawing 831]
- IC50 (CXCR4 [1]; Table 9, selected compounds): 56 nM
